Here are results for two molecules from US20050153951A1, “Neurotrophic pyrrolidines and piperidines, and related compositions and methods” (priority 1999, published 2005).

Test [1] has as its system Primary Rat Hippocampal Cells. Put plainly: Neurite outgrowth assay, primary rat hippocampal cells. The test is classed as cell-based. The settings on record: MAP-2 immunofluorescence; active if greater than mean DMSO-treated control on the same plate. How it is done: Hippocampal cells are dissected from the brains of embryonic day 18 rat pups and dissociated with trypsin (1 mg/mL) and trituration. Cells are seeded at 30,000 cells/well in 96-well plates filled with 100 μL MEM and 10% FBS. At 7 days in culture, cells are fixed with 4% paraformaldehyde and immuno-fluorescence is performed.
(§1) Cultures are incubated with normal horse serum (1:50; Vector Labs) for about 20 min, rinsed and then incubated with primary antibody, microtubule associated-protein 2 (anti-mouse MAP-2; 1:1000; Chemicon) for about 2 h at about RT. Following primary antibody, cultures are rinsed and incubated with fluorescein anti-mouse IgG (rat absorbed; 1:50; Vector Labs) for about 1 h. After fluorescein incubation, the cultures are rinsed and read in PBS on a fluorescent plate reader (excitation: 485 nm; emission: 530 nm). […] The response to test compound is reported as percent of DMSO-treated control.

The subject of test [2] is Human M17 Neuroblastoma Cells. Put plainly: Neurite outgrowth assay, M17 neuroblastoma cells. In kind it is cell-based. The settings on record: MAP-2 immunofluorescence; active if greater than mean DMSO-treated control on the same plate. How it is done:
M17 human neuroblastoma cells are cultured in 1:1 ratio of EMEM and Hams's F12 with 1×NEM and 10% FBS. The culture media contains 1×PSN antibiotic and is exchanged every other day, and the cells are passed in log phase near confluence.
as §1

Test [3] relates to ALS patients. The settings on record: cited from earlier work.

Structures are written as SMILES.

Consider `CCC(C)(C)C(=O)C(=O)N1CCCC1c1csc([C@@H]2CCCN2C(=O)C(=O)C(C)(C)CC)n1` (stereo partly drawn) [Compound 43], for which the “Rat Hippocampal Cell Response” value in test [1] was 120% of DMSO-treated control. Further, the “M17 Cell Response” value in test [2] is 108% of DMSO-treated control.

With `Nc1nc2ccc(OC(F)(F)F)cc2s1` [Riluzole], the “rate of survival of ALS patients” value in test [3] is “increase the rate of survival”.
